“And” between values parts separate entries of the source, which are not always exact repeats. Identical values can stand only once.
Tests used:
In vivo pharmacokinetics = conditions: female, golden Syrian, hamster, plasma, hamsters, oral 6.25 mg/kg qd
Experimental: Additional PK studies were also conducted by WuXi AppTec Co, Ltd (Shanghai, China) according to protocols reviewed and approved by DNDi. Studies were conducted in male Sprague Dawley rats (IV dose of 3 mg/kg and single oral doses of 10, 50, 100 and 300 mg/kg), female BALB/c mice (twice daily (at 6 and 24 h) oral doses of 3.13, 6.25 and 12.5 mg/kg for 5 days), golden Syrian hamsters (single oral dose of 50 mg/kg and once daily oral doses of 6.25, 12.5 and 25 mg/kg for 5 days) and in beagle dogs (IV dose of 1 mg/kg and single oral doses of 5 and 30 mg/kg). IV and oral formulations for rats, mice and hamsters were the same as described above. For dogs, the IV dose was administered in saline containing 2% DMSO and 3% Solutol HS-15 and the oral formulation was as described above. Blood was sampled up to 48 h post-dose into vials containing potassium EDTA as an anticoagulant, proteins were precipitated with acetonitrile and plasma was separated and assayed by LC-MS.
Single dose pharmacokinetic parameters (clearance, volume of distribution and half-life) were initially estimated using non-compartmental methods and oral bioavailability was calculated using the ratio of the dose corrected AUC after oral dosing relative to that after IV administration. Nominal doses were used in the calculations unless the measured dose differed by more than 15% from the nominal dose, in which case the measured dose was used. Where a full concentration versus time profile was obtained from a single animal, parameters were estimated for each animal and mean and standard deviations calculated. In the case of mice where sparse sampling was used with multiple animals per time point, the data analysis was conducted using the mean profile.

[1] = test system: L. infantum MHOM/MA67/ITMAP263; assay: Acute mouse infection model (VL); assay type: in vivo, BALB/c mice; conditions: 6.25 mg/kg bid, 5-day dosing
Experimental: (§1) Female 8−10-week-old BALB/c mice were infected with 2 x 10^7 L. donovani MHOM/ET/67/L82 (synonym HU3) or L. infantum MHOM/MA67/ITMAP263 amastigotes on day 0 and dispatched in groups of five individuals. […] Five days following end of treatment, all mice were sacrificed, and parasite burden was determined from smears of liver sections. Efficacy was expressed as the mean percentage load reduction compared to untreated (vehicle-only) control animals. Reference drugs miltefosine and/or AmBisome were used as positive controls and comparators.

[2] = test system: L. donovani MHOM/ET/67/L82 (synonym HU3); assay: Acute mouse infection model (VL); assay type: in vivo, BALB/c mice; conditions: 6.25 mg/kg bid, 5-day dosing
Experimental: as §1

L. infantum [3] = assay: Chronic hamster infection model (VL); assay type: in vivo, golden hamsters
Source text: (§2) Female golden hamsters (5 per treatment group) were infected through intracardiac administration of 2x10^7 L. infantum amastigotes obtained from the spleen of a heavily infected donor hamster. DNDI-6174, miltefosine as reference control or vehicle were orally administrated from day 21 post-infection. After 5-day treatment period, followed by a 10-day wash out period, animals were sacrificed, and parasites burden assessed in the three target organs (liver, spleen, and bone-marrow). For this assessment, organs of individual animals were weighed, except for bone-marrow thus only providing a semi-quantitative evaluation only. Impression smears were Giemsa-stained for microscopic evaluation of amastigote burden, expressed as LDU (= mean number of amastigotes/cell × organ weight in mg) and the results were expressed as a percentage reduction compared to the burdens in the control group (vehicle as placebo). For evaluating the presence of viable residual burden after treatment, a promastigote back-transformation assay was conducted. This consisted of the incubation at ambient temperature of aseptically collected pieces of spleen or liver tissue in 1 mL of promastigote back-transformation medium in 24-well plates. For the bone-marrow, resected femurs were flushed with 1 mL medium. The medium consists of HOMEM pH 6.0 prepared as described elsewhere ([5]) with 10% fetal bovine serum (Gibco), 2.5% penicillin/streptomycin and 1% gentamicin (Merck). A qualitative assessment of the presence of promastigotes was made after 3 and 5 days of incubation and a score was attributed (+, ++ or +++) based on parasite density in the positive wells.

L. infantum [4] = assay: Promastigote back-transformation assay on organs of treated hamsters; assay type: in vivo, golden hamsters; design: key: an arbitrary parasite score attributed (+, ++ or +++) based on visual inspection of parasite density in the positive wells; an arbitrary parasite score attributed (+, ++ or +++) based on visual inspection of parasite density in the positive wells; an arbitrary parasite score attributed (+, ++ or +++) based on visual inspection of parasite density in the positive wells; A score of “-“is attributed in the absence of parasite; conditions: 5 days
Source text: as §2
Supplementary Materials and methods
Promastigote transformation assay
For evaluating the presence of viable residual burdens after treatment, a promastigote back-transformation assay is conducted. This test consists of the incubation at ambient temperature of aseptically collected pieces of spleen or liver tissue in 1 mL of promastigote back-transformation medium in 24-well plates. For the bone-marrow, resected femurs are flushed with 1 mL medium. The medium consists of HOMEM pH 6.0 prepared as described elsewhere (1) with 10% fetal bovine serum (Gibco) and 2.5% penicillin/streptomycin and 1% gentamicin (Merck). A qualitative assessment of the presence of promastigotes is made after 3 and 5 days of incubation and a score is attributed (+, ++ or +++) based on parasite density in the positive […]
Supplementary Information on Tables
L. infantum MHOM/FR/96/LEM3323 Cl4 was originally obtained from a French HIV-positive patient (Languedoc area in Southern France) and provided by Dr. Laurence Lachaud of the Centre National de Référence des Leishmanioses (CNRL), Montpellier, France. The miltefosine and paromomycin resistant lines (LEM3323 Cl4 MIL-R and PMM-R) were obtained by successive in vitro selection cycles on intracellular amastigotes (2, 3)

[5] = 6.25 mg/kg bid, individual animals 1-4
[6] = 6.25 mg/kg qd, individual animals 1-5

SMILES: Cc1[nH]c2nc(N)nc(C)c2c1-c1ccc(C#N)c2c1OCO2 [DNDI-6174]
- Cmax at 5 days (In vivo pharmacokinetics): 1430 ng/mL
- AUC(0-t) (In vivo pharmacokinetics; 5 days, read-out: AUC0-24 (first dose)): 3580 ng·h/mL
- AUC (In vivo pharmacokinetics; 5 days, read-out: AUC96-120 (last dose)): 9230 ng·h/mL
- Cmax (In vivo pharmacokinetics; 5 days, read-out: Cmax (Day 1)): 661 ng/mL
- efficacy (>95% reduction in liver parasite burden), in words [1]: not sufficient
- efficacy (>95% reduction in liver parasite burden), in words [2]: not sufficient
- reduction in parasite burden (L. infantum [3]; 6.25 mg/kg bid): more than 95%
- efficacy, in words (L. infantum [3]; 6.25 mg/kg once daily): not sufficient for efficacy
- minimum efficacious daily dose (L. infantum [3]; given bid for 5 days): 6.25 mg/kg
- parasite score, Bone-marrow (L. infantum [4]; [5]): ++ (2×) and - (2×)
- parasite score, Liver (L. infantum [4]; [5]): + (2×) and - (2×)
- parasite score, Spleen (L. infantum [4]; [5]): ++ (2×) and - (2×)
- parasite score, Bone-marrow (L. infantum [4]; [6]): ++
- parasite score, Liver (L. infantum [4]; [6]): + (4×) and ++
- parasite score, Spleen (L. infantum [4]; [6]): ++ (4×) and +

From publication PMC7615677, “DNDI-6174, a preclinical candidate for visceral leishmaniasis that targets the cytochrome bc1 complex” (Science translational medicine, 2023)
